For this test, the target named is FAAH (Rattus norvegicus, UniProt P97612). The test is described as follows: FAAH assay: hydrolysis of [3H]AEA by rat brain homogenates. As to conditions: for Vmax app of AEA hydrolysis: AEA 0.3–3 μM.

Amino acid sequences for entries named in this document (tags omitted).
UniProt P97612, whole entry: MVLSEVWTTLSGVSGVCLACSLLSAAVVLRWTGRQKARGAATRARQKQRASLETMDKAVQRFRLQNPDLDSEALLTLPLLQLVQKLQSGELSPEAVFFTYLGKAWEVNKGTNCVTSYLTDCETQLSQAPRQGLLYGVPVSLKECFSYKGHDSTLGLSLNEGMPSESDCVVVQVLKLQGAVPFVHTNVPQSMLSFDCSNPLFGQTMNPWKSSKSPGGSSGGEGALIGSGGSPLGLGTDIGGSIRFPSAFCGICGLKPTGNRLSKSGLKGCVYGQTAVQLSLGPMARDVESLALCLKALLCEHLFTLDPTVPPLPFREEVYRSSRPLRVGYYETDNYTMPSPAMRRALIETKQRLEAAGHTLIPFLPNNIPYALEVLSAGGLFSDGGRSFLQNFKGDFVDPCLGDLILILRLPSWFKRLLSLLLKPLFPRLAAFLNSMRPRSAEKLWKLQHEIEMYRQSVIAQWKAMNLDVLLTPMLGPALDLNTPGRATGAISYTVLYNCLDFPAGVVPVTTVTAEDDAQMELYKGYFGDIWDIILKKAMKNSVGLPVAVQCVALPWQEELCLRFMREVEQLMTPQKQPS

“Also recorded” adds a separate entry of the source.

As to `Cc1cccnc1NC(=O)CNC(=O)C(C)c1ccc(CC(C)C)cc1` (stereo not shown) [Compound 9, 2-(4-Isobutylphenyl)-N-(2-(3-methylpyridin-2-ylamino)-2-oxoethyl)propanamide], the “time-dependency of FAAH inhibition (preincubation time)” value was “did not show time-dependent inhibition”. Besides, the “reversibility of FAAH inhibition (dilution experiments)” value (12 μM preincubated 60 min at 37 °C, diluted 20-fold) is listed as “fully reversible”. Also, the “FAAH/COX-1 potency ratio, ratio for 1 set to unity” value (higher number = increased FAAH inhibitory potency relative to COX-1 potency) was ~ 60. For the same compound, the “Vmax app of AEA hydrolysis” value (in the presence of 3 of 9) was 2.42 nmol.mg protein^−1.min^−1. For the setting “in the presence of 5 of 9”, the “Vmax app of AEA hydrolysis” value turned out to be 2.40 nmol.mg protein^−1.min^−1. For the same compound, the “mode of inhibition of FAAH” value (rat brain AEA hydrolysis) is “competitive mode of inhibition; also recorded: competitive inhibitor”. Also, the Max inhibition % (solvent EtOH) is 100%.

Values taken from publication PMC3606911 (2012).
